This is an account of results in ChEMBL document CHEMBL5053550, “LipE guided discovery of isopropylphenyl pyridazines as pantothenate kinase modulators” (Bioorg Med Chem, 2021).

Protein sequences, listed by entry. Tags and fused reporters are not part of them. Lines headed by an entry give the natural chain unless they say otherwise; changes in a name come on top.
UniProt Q9H999: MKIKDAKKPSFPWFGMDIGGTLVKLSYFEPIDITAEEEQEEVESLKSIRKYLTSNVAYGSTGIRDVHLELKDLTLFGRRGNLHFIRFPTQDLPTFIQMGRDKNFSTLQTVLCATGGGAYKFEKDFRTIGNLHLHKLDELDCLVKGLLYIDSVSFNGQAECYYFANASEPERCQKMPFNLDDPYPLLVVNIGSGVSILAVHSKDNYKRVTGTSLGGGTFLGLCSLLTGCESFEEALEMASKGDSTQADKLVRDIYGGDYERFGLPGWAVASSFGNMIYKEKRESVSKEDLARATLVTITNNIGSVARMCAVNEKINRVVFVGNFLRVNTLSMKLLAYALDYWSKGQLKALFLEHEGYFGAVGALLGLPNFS

The target of the experiment is Pantothenate kinase 3 (Homo sapiens, UniProt Q9H999).

As a reminder, the IC50 is the midpoint of a concentration-inhibition curve. Low readings indicate greater potency, high ones weaker potency. As to `CC(C)c1ccc(NC(=O)N2CCN(c3ccc(Cl)nn3)CC2)cc1`, the 50% inhibitory concentration (IC50) is 0.7 nM.

The molecule `CC(C)c1ccc(NC(=O)N2CCN(c3cnc(C#N)cn3)CC2)cc1` registered a half-maximal inhibitory concentration (IC50) of 29 nM.

On to `CC(C)(C)c1ccc(NC(=O)N2CCN(c3ccc(C#N)cn3)CC2)cc1`, for which the IC50 stood at 510 nM.

Take `CC(C)c1ccc(CC(=O)N2CCN(c3ccc(C#N)cn3)CC2)cc1`: the IC50 came out at 60 nM.

In turn, `CC(C)c1ccc(NC(=O)N2CCN(c3ccc(C#N)nn3)CC2)cc1` came in with an IC50 of 4 nM.

In turn, `CC(C)c1ccc(OC(=O)N2CCN(c3ccc(C#N)nn3)CC2)cc1` yielded an IC50 of 10 nM.

For the molecule `CC(C)c1ccc(CC(=O)N2CCN(c3cnc(C#N)nc3)CC2)cc1`, half-maximal inhibition (IC50) required 10 nM.

In the case of `CC(C)(C)c1ccc(CC(=O)N2CCN(c3ccc(C#N)cn3)CC2)cc1`, the IC50 came out at 60 nM.

Take `CC(C)c1ccc(NC(=O)N2CCN(c3ccc([N+](=O)[O-])cn3)CC2)cc1`: the IC50 is 20 nM.

In the case of `CC(C)c1ccc(CC(=O)N2CCN(c3cnc(Cl)cn3)CC2)cc1`, the IC50 was 1.8 nM.
